Source: PubChem BioAssay
Nrf2 ARE act: activators of Nrf2 (ARE) signaling. AREc32 ARE-luciferase reporter (MCF7-derived line), luminescence, 24 h. Potency, µM (highest dose often 46.1 µM), for inactives: at the top dose activation, most hits filed as activators. 410,000 tested, 0.31% active. AID 624171; note: potency is the fitted concentration of half-maximal effect; % of control where 0% means no effect; nearly all actives have a fitted effect of over 65% in size
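AREc32 cells carrying an ARE-driven firefly luciferase reporter were seeded at 1000 cells/well in OPTI-MEM with 5% FBS, then exposed to compound for 24 hr at 37 deg C. Luminescence was read with Steady-Glo after 30 min at RT.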
Glioma ERSR ind: ER stress response induction in glioma. Potency, µM, for inactives: at the highest dose activation, usual class: activators. 420,000 tested, 0.02% active. U87-MG GRP78 promoter luciferase reporter, 16 h; note: potency is the fitted concentration of half-maximal effect; series mostly up to about 76 µM; % of control where 0% means no effect; nearly all actives have a fitted effect of over 35% in size
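Stably transfected U87-MG glioma cells carrying a GRP78-based luciferase sensor; 16 h compound incubation. Luminescence end-point read 10 min after Bright-Glo addition at room temperature.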
A549 viability: counter-screen for Nrf2 inhibitors: cytotoxicity in A549 cells; Potency, µM (series often up to 46 µM), inactives show at the highest dose activity change, negative = cytotoxicity, usual class: inhibitors; 390,000 tested, 0.16% active; A549 ARE-Fluc cells, CellTiter-Fluor viability, 18-24 h; AID 504648; note: potency is the fitted concentration of half-maximal effect; % is set by controls: 0 for no effect and ±100 for the full control effect
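A549 ARE-Fluc cells in 5% FBS OPTI-MEM, 5000 cells/well, rested 2 h then exposed to compounds in concentration-response for 18-24 h at 37 °C. Viability by CellTiter-Fluor fluorescence (Ex 405/Em 525) after 30 min; luciferase luminescence (BugLite, 15 min, RT) read afterwards.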
miR-21 reporter: raises the signal of a miR-21 reporter | HeLa miR-21 FLuc reporter, luciferase, 48 h | Potency, µM (highest dose often 38.3 µM), for inactives: at the highest dose reporter change, positive = more light | 340,000 tested, under 10 active | AID 2288; active = well fitted rising curve with a large enough effect; inconclusive = small, poorly fitted or top-dose-only effect; inactive = no such curve, though single readings can be large or run the other way;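 also: % of control where 0% means no effect; miR-21 action dims this reporter so a rising signal means less miR-21 action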
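Compounds were titrated across several concentrations (up to approximately 40 uM) and incubated 48 hours with HeLa miR-21-FLuc reporter cells (miR-21 target sequence downstream of FLuc, endogenous miR-21). Readout was firefly luciferase luminescence after lytic detection reagent.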
Mito fusion act: blocks mitochondrial division or promotes mitochondrial fusion. AID 485298. S. cerevisiae fusion-defective mutant growth rescue, CellTiterGlo 48 h. 320,000 tested, 0.23% active. Potency, µM (titrated, usually from 46.1 µM), without a hit: at the top dose growth rescue (activation), actives largely listed as activators; note: potency is the fitted concentration of half-maximal effect; % of control where 0% means no effect; nearly all actives have a fitted effect of over 45% in size
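Luminescent cell viability in 1536-well qHTS format served as the measure of rescued growth in ts fusion-mutant S. cerevisiae cultured on non-fermentable YPEG for 48 hours at 37C.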
Nrf2 block: Nrf2 pathway inhibition; A549 ARE-Fluc reporter, luciferase luminescence, 18-24 h; 360,000 tested, 2.1% active; AID 504444; Potency, µM (titrated, usually from 46 µM), without a hit: top-dose activity change, negative = inhibition, most hits filed as inhibitors; note: potency is the fitted concentration of half-maximal effect; % is set by controls: 0 for no effect and ±100 for the full control effect; nearly all actives have a fitted effect of over 60% in size
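Two sequential reads on A549 ARE_Fluc cells exposed to compound for 18-24 h: a CellTiter-Fluor fluorescence read for viability, then a luciferase luminescence read for Nrf2/ARE activity.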
Numbers without * were called inactive; ? = inconclusive; . = no result; [ ] = remark or other dose. Only some compounds are listed: those with a hit (about 2.3% of all), similar ones and a draw of the others. Calls come from the whole dose curve; as a rule, active = well fitted curve in the direction sought with a large enough effect; inconclusive = small, poorly fitted or top-dose-only effect, or another doubt; inactive = no such curve, though single readings can be large; an effect the other way counts as inactive or inconclusive.

1	CC(=O)c1ccccc1NC(=O)c1ccc(OCc2c(C)noc2C)cc1
2	CCOC(=O)c1cccc(NC(=O)c2ccc(N(C)C)cc2)c1
3	Cc1noc(C)c1COc1ccc(C(=O)N2CCN(c3cccc(Cl)c3)CC2)cc1
4	CCOC(=O)c1cccc(NC(=O)c2ccc(NC(=O)c3ccco3)cc2)c1
5	CC(=O)c1cccc(NC(=O)c2ccc(OCc3c(C)noc3C)cc2)c1
6	O=C(Nc1ccccc1)c1cccc(NC(=O)c2ccco2)c1
compound no.,1,2,3,4,5,6
Nrf2 ARE act,2%,-1%,0%,5%,-1%,20%
Glioma ERSR ind,-4%,-10%,0%,-8%,-4%,1%
A549 viability,0%,-6%,-5%,-11%,-2%,-7%
miR-21 reporter,.,-8%,.,-5%,.,.
Mito fusion act,.,-3%,-12%,-8%,4%,.
Nrf2 block,13µM*,16µM*,23µM*,21µM*,?,?

7	CC(NC(=O)/C(=C\c1ccco1)NC(=O)c1ccco1)C(=O)O (stereo not drawn)
8	Cc1ccc(C(=O)Oc2cccc(NC(=O)c3ccccc3)c2)cc1C
9	CCOC(=O)c1cccc(NC(=O)COc2ccc([N+](=O)[O-])cc2)c1
10	Cc1ccc(C(=O)OCc2c(C)noc2C)cc1NC(=O)c1ccco1
11	C=Cc1cccc(NC(=O)c2ccc(NC(=O)c3ccco3)cc2)c1
12	Cc1nnc(SCc2nnc(-c3cccs3)o2)s1
compound no.,7,8,9,10,11,12
Nrf2 ARE act,0%,0%,0%,4µM*,1%,6%
Glioma ERSR ind,-5%,1%,-4%,-5%,10%,-2%
A549 viability,3%,11%,-10%,-5%,0%,2%
miR-21 reporter,1%,-27%,11%,0%,4%,-15%
Mito fusion act,-1%,10µM*,4%,3%,-2%,-2%
Nrf2 block,8%,2%,26µM*,11%,10µM*,8%

13	CCOc1ccc(C(=O)Nc2ccc(NC(=O)c3ccco3)c(Cl)c2)cc1Cl
14	CCOc1ccc(C(=O)Nc2ccc(NC(=O)c3ccco3)c(Cl)c2)cc1Br
15	CN1CCN(C(=O)CC2C(=O)NCCN2Cc2ccc(-c3ccccc3)cc2)CC1 (stereo not drawn)
16	O=C(O)c1cccc(Nc2ncnc3c2cnn3-c2ccccc2)c1
17	COc1ccc(/C=N/n2cnn(Cc3ccccc3Cl)c2=S)cc1OC
18	COc1ccc(NC(=O)C23CC4CC(C2)CC(c2ccc(C)cc2)(C4)C3)cc1
compound no.,13,14,15,16,17,18
Nrf2 ARE act,0%,0%,0%,0%,1%,4%
Glioma ERSR ind,-2%,-6%,1%,-12%,3%,-4%
A549 viability,?,?,1%,-3%,4%,-18%
miR-21 reporter,-3%,-6%,-1%,-50%,-1%,12%
Mito fusion act,-1%,2%,-1%,-1%,4%,21%
Nrf2 block,21µM*,?,9%,?,18µM*,16µM*

19	O=C(c1cc2nc(-c3ccccc3)cc(-c3ccccc3)n2n1)N1CCN(C(=O)c2ccco2)CC1
20	O=C(c1cc2nc(-c3ccccc3)cc(-c3ccccc3)n2n1)N1CCCC1
21	CC1Sc2n(c3ccccc3[n+]2C)N=C1c1ccccc1 (stereo not drawn)
22	Cn1c(=O)c(/C=C/c2ccccc2)nc2ccccc21
23	Cn1c(=O)c(/C=C/c2ccc(F)cc2)nc2ccccc21
24	COc1cccc(/C=C/c2ccc3cccc(O)c3n2)c1
compound no.,19,20,21,22,23,24
Nrf2 ARE act,2%,0%[9.22 µM],?,5µM*,16%,?
Glioma ERSR ind,-3%,-1%,-5%,6%,0%,-6%
A549 viability,-2%,-5%,-18%,2%,-1%,4%
miR-21 reporter,5%,-7%,?,-67%,-37%,-16%
Mito fusion act,?,-2%,6%,13%,18%,4%
Nrf2 block,23µM*,?,12µM*,?,?,?

Entries by screen from the list:
Nrf2 ARE act for nos. 19 to 24: 2%, 0%[9.22 µM], ?, 5µM*, 16%, ?
Glioma ERSR ind for nos. 19 to 24: -3%, -1%, -5%, 6%, 0%, -6%
Nrf2 block for nos. 19 to 24: 23µM*, ?, 12µM*, ?, ?, ?

Three compounds out of the list, arranged by length of the SMILES, high to low:
18	COc1ccc(NC(=O)C23CC4CC(C2)CC(c2ccc(C)cc2)(C4)C3)cc1
5	CC(=O)c1cccc(NC(=O)c2ccc(OCc3c(C)noc3C)cc2)c1
2	CCOC(=O)c1cccc(NC(=O)c2ccc(N(C)C)cc2)c1
compound no.,18,5,2
Nrf2 ARE act,4%,-1%,-1%
Glioma ERSR ind,-4%,-4%,-10%
A549 viability,-18%,-2%,-6%
miR-21 reporter,12%,.,-8%
Mito fusion act,21%,4%,-3%
Nrf2 block,16µM*,?,16µM*

Later entries.
25	Oc1cccc(/C=C/c2ccc3cccc(O)c3n2)c1
26	COc1ccc(/C=C/c2ccc3cccc(O)c3n2)c(OC)c1OC
27	Cc1ccc2nc(N(Cc3cccnc3)C(=O)CCS(=O)(=O)c3ccccc3)sc2c1
28	Cc1cccc(N(C(=O)c2snc(C(N)=O)c2N)C(C(=O)NCc2ccccc2)c2ccncc2)c1 (stereo not drawn)
29	Nc1nc(N)c(Cc2ccc(Cl)cc2Cl)c(N)n1
30	Nc1nccc(SCc2ccc(Cl)cc2Cl)n1
compound no.,25,26,27,28,29,30
Nrf2 ARE act,4.5µM*,22µM*,3%,0%,2%,3%
Glioma ERSR ind,?,?,-1%,-7%,-6%,4%
A549 viability,-3%,-8%,1%,-15%,-14%,2%
miR-21 reporter,3%,-17%,5%,-45%,13%,.
Mito fusion act,25%,8%,.,-4%,-13%,.
Nrf2 block,-4%,?,.,23µM*,18µM*,-5%

(more compounds)
Sequence of screens: Nrf2 ARE act	Glioma ERSR ind	A549 viability	miR-21 reporter	Mito fusion act	Nrf2 block
(31) CN(c1ccc(C(=O)Nc2cccnc2)cc1)S(=O)(=O)c1ccccc1
    1%	0%	3%	6%	-1%	-23%
(32) O=C(CCC1N=C2c3ccccc3N=C(SCc3ccccc3Cl)N2C1=O)NCc1ccco1 (stereo not drawn)
    0%	-3%	?	-15%	6%	18µM*
(33) O=C(CCC1N=C2c3ccccc3N=C(SCc3cccc(Cl)c3)N2C1=O)NCc1ccco1 (stereo not drawn)
    0%	-6%	-13%	4%	5%	-27%
(34) Nc1c(C(=O)c2ccccc2)oc2ccc([N+](=O)[O-])cc12
    5%	5%	-5%	-41%	3%	-5%
(35) Cc1ccc(C(=O)CC2(O)C(=O)N(Cc3ccccc3)c3ccc(Br)cc32)cc1 (stereo not drawn)
    -4%	18%	?	24%	2%	.
(36) Cc1ccc(C(=O)N2c3ccccc3N(Cc3ccccc3)C(=O)C2(C)C)cc1
    1%	-3%	-13%	?	-7%	12µM*
(37) CCC(C)N=Cc1c(NCc2ccco2)nc2c(C)cccn2c1=O (stereo not drawn)
    13µM*	-3%	-5%	-12%	19%	-5%
(38) Cc1cccn2c(=O)c(/C=N/O)c(NCc3ccccc3)nc12
    0%	1%	6%	-46%	-1%	1%
(39) C=CCNC(=O)C12CCC(C)(C(=O)[C@H]1Br)C2(C)C (stereo partly drawn)
    0%	-4%	-2%	5%	-6%	-8%
(40) N#C/C(=C\c1cccc([N+](=O)[O-])c1)c1ccccn1
    3.5µM*	8%	0%	-16%	-6%	-13%
(41) O=[N+]([O-])c1cccc(/C=C/c2ccccn2)c1
    ?	4%	?	-11%	3%	?
(42) Cc1oc(-c2cc(F)ccc2F)nc1CN1CCC(C(=O)N2CCOCC2)CC1
    1%	-3%	-7%	0%	0%	9%
(43) Cc1oc(-c2cc(F)ccc2F)nc1CN1CCN(c2ncnc3ccccc23)CC1
    -1%	-3%	-9%	-14%	-5%	26µM*
(44) COc1ccc([C@]23Cc4ccccc4C(O2)C2=C(CCCC2=O)O3)cc1
    .	.	.	-8%[7.66 µM]	1%[9.22 µM]	.
